Reference: ChEMBL document CHEMBL4828761, “Development and crystallography-aided SAR studies of multifunctional BuChE inhibitors and 5-HT6R antagonists with β-amyloid anti-aggregation properties” (Eur J Med Chem, 2021)

Protein sequences, listed by entry. Tags and fused reporters are not part of them.
UniProt P81908, whole entry: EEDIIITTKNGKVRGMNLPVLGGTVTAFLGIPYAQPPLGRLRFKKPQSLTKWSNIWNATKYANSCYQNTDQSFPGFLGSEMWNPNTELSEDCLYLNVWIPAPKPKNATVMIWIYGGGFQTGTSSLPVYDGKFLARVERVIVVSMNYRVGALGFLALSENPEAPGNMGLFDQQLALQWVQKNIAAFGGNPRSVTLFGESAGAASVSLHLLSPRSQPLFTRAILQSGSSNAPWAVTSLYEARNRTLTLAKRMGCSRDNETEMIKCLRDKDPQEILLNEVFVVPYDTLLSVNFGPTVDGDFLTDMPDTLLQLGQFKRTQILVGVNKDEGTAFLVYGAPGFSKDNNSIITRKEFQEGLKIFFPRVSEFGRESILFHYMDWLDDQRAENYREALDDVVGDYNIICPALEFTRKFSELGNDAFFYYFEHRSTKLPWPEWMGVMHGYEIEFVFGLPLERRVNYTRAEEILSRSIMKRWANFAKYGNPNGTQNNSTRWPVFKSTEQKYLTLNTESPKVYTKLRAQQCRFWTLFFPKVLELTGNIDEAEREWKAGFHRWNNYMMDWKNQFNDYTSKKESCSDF

Columns and labels:
[1] = molecular target: Cholinesterase (Equus caballus) (UniProt P81908); experiment: Non-competitive inhibition of equine serum BuChE using BTC as substrate by Lineweaver-Burk plot analysis; format: cell-free
[2] = molecular target: Cholinesterase (Equus caballus) (UniProt P81908); experiment: Non-competitive inhibition of equine serum BuChE using BTC as substrate by Cornish-Bowden plot analysis; format: cell-free

Question: What does the source list for `O=S(=O)(c1ccccc1)n1ccc2c(OCCNCC3CCCCC3)cccc21`?
Answer: inhibition [1]: Active; inhibition [2]: Active

Question: Which results are given for `O=S(=O)(c1ccccc1)n1ccc2c(OCCNCc3ccccc3)cccc21`?
Answer: inhibition [1]: Active; inhibition [2]: Active

The source made the active and inactive calls. The calls are words filed in the database; no cut-off is given here.
